Measured logP (octanol/water) values of organic chemicals

From the experimental data distributed with OPERA 2.9.

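OPERA's authors assembled the values from existing databases and did not measure them anew. One number stands for a compound and property, with no spread given. How each value was measured is not recorded, so precision varies. Where a salt, mixture or single isomer is drawn, the source does not say that exactly this form was tested. Some upstream entries may be estimates or bounds without being marked so.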

logP is the log10 of the octanol-water partition coefficient; higher is more lipophilic.

compound,log Kow
OCC(O)COC1CCCCC1 (stereo unspecified),1.6
CC(=O)OC1C(C)(C)[C@H]2CC[C@]1(C)C2 (stereo partly specified),4.33
Cc1cc(N)c(S(=O)(=O)O)cc1Cl,-0.83
CC/C=C\CCOC(=O)OC,3
CCCCC(CC)COS(=O)(=O)[O-].[NH4+] (stereo unspecified),3.7
COS(=O)(=O)[O-].Cc1ccc(N(C)/N=C/C2=[N+](C)c3ccccc3C2(C)C)cc1,-1.1
C=C(C)C(=O)OC1CCCCC1,3.13
CC1(C)C(O)C(C)(C)C1O (stereo unspecified),1.6
CCN(CC)c1ccc(/C=C/C2=[N+](C)c3ccccc3C2(C)C)cc1.O=P([O-])(O)O,-2.4
O[C@H]1CO[C@H]2OCC[C@H]21,1.055
CCCCC[C@@H]1CCC[C@@H]1O (relative stereo),3.68
S=C([S-])N(Cc1ccccc1)Cc1ccccc1.[Na+],-0.3
CCN(CC[N+](C)(C)C)c1ccc(/N=N/c2ccc([N+](=O)[O-])cc2Cl)cc1.[Cl-],0.364
CCOC(=O)CC1(C)OCCO1,0.8
COc1ccc(CC(C#N)C(=O)O)cc1OC (stereo unspecified),-1.74
CC1CCOC(c2ccccc2)C1 (stereo unspecified),3.43
Nc1ncnc2c1ncn2[C@@H]1O[C@H](CO)[C@@H](OP(=O)(O)O)[C@H]1O,-1.453
CC(=O)C(/N=N/c1ccc(S(=O)(=O)[O-])cc1[N+](=O)[O-])C(=O)Nc1ccccc1C.CC(=O)C(/N=N/c1ccc(S(=O)(=O)[O-])cc1[N+](=O)[O-])C(=O)Nc1ccccc1C.[Ca+2] (stereo partly drawn),0.04
CCOc1ccncn1,0.97
CCCCOP(C)(=O)CCC(C#N)OC(C)=O (stereo unspecified),1.2
CC(=O)OCCC(C)CCC=C(C)C (stereo unspecified),4.9
CC(C)(C)C(=O)OCOP(=O)(COCCn1cnc2c(N)ncnc21)OCOC(=O)C(C)(C)C,0.8
CCCCCCCCCCc1ccc(N)cc1,6.09
C=CC1CCC(O)C(O)C1 (stereo unspecified),0.63
CC1(C)C(=O)N(CO)C(=O)N1CO,-2.9
C1=CC(=C(c2ccccc2)c2ccccc2)C=C1,3.43
CC1(C)COC2(CCC3=C(CC[C@@H]4[C@@H]3CC[C@@]3(C)[C@H]4CC[C@]3(O)C#N)C2)OC1,4.44
Nc1cc[n+]([O-])c2ccccc12,0.05
CC(C)(C)NCC(O)COc1cccc2c1CCC(=O)N2 (stereo unspecified),1.1
CC(=O)N1CCOCC1,-0.81
CCC(=O)OCc1ccccc1,2.803
Cc1cc(/N=N/c2ccc(O)c(C(=O)[O-])c2)c(OCCCS(=O)(=O)[O-])cc1/N=N/c1ccc([N+](=O)[O-])cc1S(=O)(=O)[O-].[Na+].[Na+].[Na+],-4.4
Nc1c(I)c(C(=O)O)c(I)c(C(=O)NCC(O)CO)c1I (stereo unspecified),-3.7
CC(=O)O.CCN=C1C=CC(=C(c2ccc(NCC)c(C)c2)c2ccc(NCC)c(C)c2)C=C1C,1
Cc1ccc2c(=O)[nH]c(=O)oc2c1,1.3

The 3 lowest values of log Kow among the entries above:

compound	log Kow
Cc1cc(/N=N/c2ccc(O)c(C(=O)[O-])c2)c(OCCCS(=O)(=O)[O-])cc1/N=N/c1ccc([N+](=O)[O-])cc1S(=O)(=O)[O-].[Na+].[Na+].[Na+]	-4.4
Nc1c(I)c(C(=O)O)c(I)c(C(=O)NCC(O)CO)c1I (stereo unspecified)	-3.7
CC1(C)C(=O)N(CO)C(=O)N1CO	-2.9